The record followed here is article doi:10.1101/2025.01.19.633805.

For experiment [1], the target named is Chloride Intracellular Channel 1 (CLIC1), His-tag cleaved with TEV protease (UniProt O00299). Description: mass photometry.
Experiment [2] shares this target. Description: SEC. A general note: In gel filtration, larger molecules generally elute earlier.

Where “and” joins values, the source holds several entries; their conditions need not be identical. Equal entries are not always repeated.

Regarding “Chloride Intracellular Channel 1 (CLIC1), His-tag cleaved with TEV protease (from UniProt O00299 1-241) (natural protein)”, the stoichiometry N in experiment [1] was 4; in experiment [2], 2 and 4.

In general, stoichiometry N refers to a count of units in the complex or per binding partner.
